Source: patent US11229664B2, “Treatment of myelosuppression” (priority 2012, dated 2022)
Like-named read-outs stand apart in the source and are kept apart here.

O=C1[O][Pt]2([NH][C@@H]3CCCC[C@H]3[NH]2)[O]C1=O [Oxaliplatin, reference compound]
Average Weight (Day 4): 20.40 g | Average Weight (Day 8): 20.65 g | % Weight Loss or Gain (Day 11): −3.36% | Average Weight (Day 18): 20.45 g
